Target: human Cat S (Homo sapiens (Human), UniProt P25774)
Test: Cathepsin enzyme inhibition assay (human Cat S)
Assay type: biochemical
Details: enzyme 1 nM, substrate Z-Val-Val-Arg-AMC 20 μM, pH 6.5
Protocol: Cathepsin Enzyme Inhibition Assay
Enzyme activity is measured by observing the increase in fluorescence intensity caused by cleavage of a peptide substrate containing a fluorophore whose emission is quenched in the intact peptide.
Assay buffer: 100 mM potassium phosphate pH 6.5, EDTA-Na 5 mM, Triton X-100 0.001%, DTT 5 mM.
Enzymes (all at 1 nM): human and mouse Cathepsin S, Cat K, Cat B, Cat L.
Substrate (20 μM): Z-Val-Val-Arg-AMC, except for Cat K which uses Z-Leu-Arg-AMC (both from Bachem).
Excitation 360 nm, Emission 465 nm.
Enzyme is added to the substance dilutions in 96-well microtitre plates and the reaction is started with substrate. […] IC50 are calculated by standard methods.
Inhibition of human Cat S, mouse Cat S, human Cat K, human Cat B, human Cat L and mouse Cat L have been measured separately.

Amino acid sequences for entries named in this document (tags omitted). Residues count along the entry.
UniProt P25774, 115-331: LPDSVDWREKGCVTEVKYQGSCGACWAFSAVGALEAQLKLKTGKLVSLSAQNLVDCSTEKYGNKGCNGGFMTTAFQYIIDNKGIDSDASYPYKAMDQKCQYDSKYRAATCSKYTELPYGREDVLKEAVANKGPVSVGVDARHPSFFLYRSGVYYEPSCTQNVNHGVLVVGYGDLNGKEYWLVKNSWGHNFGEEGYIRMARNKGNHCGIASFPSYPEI

In the case of `N#CC1(NC(=O)[C@@H]2C[C@@H](S(=O)(=O)c3ccc(OCC(F)(F)F)cc3Cl)CN2C(=O)C2(c3ccc(Cl)cn3)CNC2)CC1` [Example 6, (2S,4R)-1-[3-(5-Chloro-pyridin-2-yl)-azetidine-3-carbonyl]-4-[2-chloro-4-(2,2,2-trifluoro-ethoxy)-benzenesulfonyl]-pyrrolidine-2-carboxylic acid (1-cyano-cyclopropyl)-amide], the IC50 is reported as 3.16 nM.

Molecule `C[C@H](Oc1ccc(S(=O)(=O)[C@@H]2C[C@@H](C(=O)NC3(C#N)CC3)N(C(=O)C3(c4ncc(Cl)cc4F)CCN3C(=O)OC(C)(C)C)C2)c(Cl)c1)C(F)(F)F` (stereo partly drawn) [Example 28, tert-butyl 2-(5-chloro-3-fluoropyridin-2-yl)-2-((2S,4R)-4-(2-chloro-4-((S)-1,1,1-trifluoropropan-2-yloxy)phenylsulfonyl)-2-(1-cyanocyclopropylcarbamoyl)pyrrolidine-1-carbonyl)azetidine-1-carboxylate] has an IC50 of 1.08 nM.

Source: patent US8822505B2, “Azetidine derivatives” (Hoffmann-La Roche Inc., priority 2012, dated 2014)
